# Measurements: patent US9872922B2, “Anti-EFNA4 antibody-drug conjugates” (PFIZER, INC., priority 2013, dated 2018)
# B1: huE22-AcBut-CM: huE22 conjugated via lysine residues to AcBut-N-acetyl-γ-calicheamicin dimethyl hydrazide (AcBut-CM) (conjugate)
# heavy: QVQLVQSGAEVKKPGASVKVSCKASGYTFTGYYIHWVRQAPGQGLEWMGWIYPGNFNTKYNERFKGRVTMTTDTSTSTAYMELRSLRSDDTAVYYCAREDGSPYYAMDYWGQGTSVTVSSASTKGPSVFPLAPSSKSTSGGTAALGCLVKDYFPEPVTVSWNSGALTSGVHTFPAVLQSSGLYSLSSVVTVPSSSLGTQTYICNVNHKPSNTKVDKKV[human IgG1 Fc omitted here]
# light: DIVMTQTPLSLSVTPGQPASISCRSSQSLVHSNGNTFLYWYLQKPGQSPQLLIYRVSNRFSGVPDRFSGSGSGTDFTLKISRVEAEDVGVYYCFQATHVPWTFGGGTKVEIKRTVAAPSVFIFPPSDEQLKSGTASVVCLLNNFYPREAKVQWKVDNALQSGNSQESVTEQDSKDSTYSLSSTLTLSKADYEKHKVYACEVTHQGLSSPVTKSFNRGEC
# System: Ovarian-63 (OV63) ovarian cancer PDX
# Experiment: In vivo efficacy, OV63 ovarian cancer PDX
# Parameters: species or system NOD/SCID mice (human tumor PDX)
molecule,measurement,setting,value
B1,% TGI,"0.09 mg/kg, OV63 PDX",59% TGI
same,tumor regression,0.27 mg/kg,Transient tumor regressions were achieved
same,"Regression (TTP, Days)","0.27 mg/kg, OV63 PDX",Regression (88) Days
same,effect on tumor growth,0.036 and 0.09 mg/kg,delays in tumor growth achieved
